The values below are quoted from earlier work in patent US6207411A, “Bacteriocins” (priority 1995, dated 2001).

Like-named read-outs stand apart in the source and are kept apart here.

For the data set, the system named is proteases. The note with it: nisin, background, cited from earlier work.

Take nisin: the Sensitivity to alpha-chymotrypsin result is “degraded”, the “Sensitivity to carboxypeptidase A” value is given as “insensitive”, the Sensitivity to elastase entry is given as “insensitive” and the Sensitivity to erepsin result is “insensitive”. Besides, the Sensitivity to pancreatin result was “degraded”, the Sensitivity to pepsin entry is “insensitive”, the Sensitivity to subtilopeptidase entry is “degraded” and the Sensitivity to trypsin entry is given as “not sensitive”. Further, for the setting “listed as Nisin”, the Sensitivity to alpha-chymotrypsin result was “inactivated”, the Sensitivity to pancreatin entry is “inactivated”, the Sensitivity to subtilopeptidase result is given as “inactivated” and the Sensitivity to trypsin result is on record as “insensitive”.
